Test results reported in publication PMC7400623, “Effect of lysine side chain length on histone lysine acetyltransferase catalysis” (Scientific Reports, 2020).

The chains behind the UniProt entries cited, without tags or fusion partners. Residues count along the entry.
UniProt Q92830, 497-662: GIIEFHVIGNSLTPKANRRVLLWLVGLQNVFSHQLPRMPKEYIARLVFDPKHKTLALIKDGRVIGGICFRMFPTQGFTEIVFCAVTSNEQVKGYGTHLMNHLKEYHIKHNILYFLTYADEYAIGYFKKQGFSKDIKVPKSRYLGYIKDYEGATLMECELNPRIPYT
UniProt Q92831, 498-658: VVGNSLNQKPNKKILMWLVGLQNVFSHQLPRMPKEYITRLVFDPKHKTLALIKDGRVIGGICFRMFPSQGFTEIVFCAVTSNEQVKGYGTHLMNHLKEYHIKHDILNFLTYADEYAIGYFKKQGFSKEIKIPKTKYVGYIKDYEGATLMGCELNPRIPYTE

Tests used:
Assay type in all cases: biochemical
GCN5 (KAT2A) = target: T1, GCN5 (KAT2A) (Homo sapiens, UniProt Q92830); experiment: MALDI-TOF MS enzymatic assay of GCN5-catalyzed acetylation of histone peptides; details: 300 µM AcCoA, pH 8.0, 37 °C; for acetylation (conversion to acetylated peptide) by GCN5: after 3 h, 2 µM GCN5, 100 µM peptide, 50 mM Hepes, 0.1 mM EDTA, 1 mM DTT, MALDI-TOF MS
T1 construct: Human GCN5 catalytic domain (residues 497–662 in pET28a-LIC vector); His-tag; host or cells: E. coli BL21(DE3)
Method: (§1) MALDI-TOF MS enzymatic assays were carried out to investigate KAT-catalyzed acetylation of synthetic histone peptides. The enzymatic activity of the recombinantly expressed human KATs was measured at different time points (2 µM KAT enzyme, 100 µM histone peptide, 300 µM AcCoA, buffer: 50 mM Hepes, 0.1 mM EDTA, 1 mM DTT, pH = 8.0, 37 °C, hereafter used as standard conditions) (Fig. 3b,c). MOF catalyzed full acetylation of H4K16 in 30 min, whereas GCN5 and PCAF catalyzed quantitative acetylation of H3K14 in 15 min and H3K9 only after 2–3 h (Fig. 4b, h and Supplementary Figs. 25–28). It is noteworthy that diacetylation of histone peptides was not detected under our assay conditions, due to preacetylation of the secondary site on H3. […] As further control, H4 and H3 peptides containing stereochemically inverted D-lysine were synthesized.
(§2) The KAT enzymatic activity towards histone peptides was measured at different time points under standard conditions (2 µM KAT enzyme, 100 µM peptide, 300 µM AcCoA) in the reaction buffer (50 mM HEPES, 0.1 mM EDTA, 1 mM DTT, pH = 8.0). The reactions were carried out in a final volume of 50 µL and shaken up in a Thermomixer C at 750 rpm, at 37 °C. The reactions were quenched by the addition of TFA 10% in MilliQ water at different time points. All reactions were aliquoted and mixed 1:2 with a solution of α-Cyano-4-hydroxycinnamic acid (CHCCA) in 1:1 MQ and ACN (0.1% TFA) and loaded onto an MTP 384 polished steel target to be analyzed by a UltrafleXtreme-II tandem mass spectrometer (Bruker, Billerica, MA, USA).

PCAF (KAT2B) = target: T2, PCAF (KAT2B) (Homo sapiens, UniProt Q92831); experiment: MALDI-TOF MS enzymatic assay of PCAF-catalyzed acetylation of histone peptides; details: 100 µM peptide, 300 µM AcCoA, pH 8.0, 37 °C; for acetylation (conversion to acetylated peptide) by PCAF: after 3 h, 2 µM PCAF, 50 mM Hepes, 0.1 mM EDTA, 1 mM DTT, MALDI-TOF MS
T2 construct: Human PCAF catalytic domain (residues 498–658 in pET16b vector); SNAP-tag; His-tag; made in house; host or cells: E. coli BL21(DE3)
Method: as §1, §2

PCAF catalytic domain = target: T3, PCAF catalytic domain (Homo sapiens, UniProt Q92831); experiment: MALDI-TOF MS kinetics assay, PCAF
T3 construct: Human PCAF catalytic domain (residues 498–658 in pET16b vector); SNAP-tag; His-tag; made in house; host or cells: E. coli BL21(DE3)
Source text: Kinetic analysis of bi-substrate enzymes, such as KATs, is reckoned to be challenging and dependent on many factors. Firstly, given the nature of these enzymes, the binding of one of the two substrates directly influences the binding of the other (with a direct effect on the Michaelis–Menten parameter Km). […] Therefore, to obtain data that would allow us to directly compare the catalytic properties of the selected KATs towards our selection of histone peptides bearing lysine analogs with longer side chains, two strategies to standardize our kinetic evaluation were taken: i) all the experiments were carried out with the same saturating concentrations of AcCoA and ii) only KATs catalytic domains were employed in the study. […] In contrast, kcat values decreased substantially with an increase of the side chain length, both in the K14 and K9 peptide series, and for both PCAF and GCN5 (Table 1).
Histone peptides kinetics evaluation was carried out with a MALDI-TOF MS assay under steady-state conditions[57],[58]. Histone peptides (1,050–0 µM) were incubated with AcCoA (100 µM) and the reactions were started by the addition of the enzyme (MOF 570 nM, PCAF and GCN5 50 nM) in a final volume of 20 µL in kinetic buffer (50 mM HEPES, 0.1 mM EDTA, 0.01% TRITON-X, pH = 7.4). For histone peptides bearing unnatural lysine analogs, higher concentration of enzymes was used (MOF, PCAF and GCN5 2 µM). Steady state conditions were guaranteed by employing saturating concentrations of AcCoA (> 5 × Km value). AcCoA stock solutions in milli-Q water were calibrated with a NanoDrop 2000 spectrophotometer (Thermo Scientific, Waltham, MA, USA), employing the characteristic molar extinction coefficient ε260nm = 16,400 M^−1 cm^−1. Reactions were incubated at 37 °C, shaken at 750 rpm and quenched with TFA 10% in milli-Q water at different time points, within linear production of acetylated peptides extrapolated from time-course plots. All reactions were aliquoted and mixed 1:2 with a solution of α-cyano-4-hydroxycinnamic acid (CHCCA) in 1:1 MQ and ACN (0.1% TFA) and loaded onto MTP 384 polished steel target to be analyzed by UltrafleXtreme-II tandem mass spectrometer (Bruker). The amount of acetylated peptide was calculated by integration of the product peak area and divided it by the amount of unacetylated peptide, taking in account all the ionic species, at any concentration points using the FlexAnalysis software. Kinetic values were extrapolated by fitting V0 values (µM of produced peptide per minutes) and histone peptide concentrations to the Michaelis–Menten equation using the GraphPad Prism 5 software. Kinetic experiments were carried out in duplicates and final values are reported as value ± SD.

In the case of “ARTKQTAR K9STGGK Ac A [H3K9, 15-mer H3 peptide, residues 1–15, synthetically acetylated K14, reference compound]”, the “time to quantitative acetylation by GCN5” value (GCN5 (KAT2A); standard conditions: 2 µM GCN5, 100 µM peptide) is reported as 2 to 3 h and the “time to quantitative acetylation by PCAF” value (PCAF (KAT2B); standard conditions: 2 µM PCAF) is reported as 2 to 3 h.
For “ARTKQTAR h2K9STGGK Ac A [H3h2K9, 15-mer histone H3 peptide (K14ac) with h2K at position 9]”, the “acetylation (conversion to acetylated peptide) by GCN5” value (GCN5 (KAT2A)) was 14%, the “kcat^app” value (PCAF catalytic domain; PCAF catalytic domain 50 nM (2 µM for unnatural analogs), peptide 1,050–0 µM, AcCoA 100 µM (saturating), 50 mM HEPES, 0.1 mM EDTA, 0.01% TRITON-X, pH 7.4, 37 °C, MALDI-TOF MS, duplicates, value ± SD, SD) was 0.0012 ± 0.00017 s⁻¹ and the Km (PCAF catalytic domain; PCAF catalytic domain 50 nM (2 µM for unnatural analogs), peptide 1,050–0 µM, AcCoA 100 µM, pH 7.4, 37 °C, MALDI-TOF MS, duplicates, value ± SD, SD, read-out: Km^app) was 179 ± 37 µM. The “decrease (drop) of kcat/Km for PCAF compared to the natural lysine peptide” value (PCAF catalytic domain; PCAF, K14 series vs H3K14, K9 series vs H3K9) was 30 fold, the “kcat^app/Km^app” value (PCAF catalytic domain; PCAF, same kinetics conditions) was 6.7 M⁻¹ s⁻¹ and the “acetylation (conversion to acetylated peptide) by PCAF” value (PCAF (KAT2B)) was 33%.
“ARTKQTAR hK 9STGGK Ac A [H3hK9, 15-mer histone H3 peptide (K14ac) with hLys at position 9]” was tested, and the “acetylation (conversion to acetylated peptide) by GCN5” value (GCN5 (KAT2A)) was 30% and the “acetylation (conversion to acetylated peptide) by PCAF” value (PCAF (KAT2B)) was 50%.
